# Assay outcomes as filed in PubChem BioAssay.
# The list is not random: actives were taken first. Their share in the collection is about 3.7%.
# miR-21 reporter: miR-21 reporter, rising signal. 340,000 tested, under 10 active. Potency, µM (highest dose often 38.3 µM), for the others: at the highest dose reporter change, positive = more light. HeLa miR-21 FLuc reporter, luciferase, 48 h. AID 2288; active = well fitted rising curve with a large enough effect; inconclusive = small, poorly fitted or top-dose-only effect; inactive = no such curve, though single readings can be large or run the other way;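 further: % of control where 0% means no effect; miR-21 action dims this reporter so a rising signal means less miR-21 action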
#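 HeLa cells stably expressing CMV-driven firefly luciferase with a downstream miR-21 binding sequence, endogenously expressing miR-21, were treated with titrations (up to about 40uM final) for 48 hours at 37 degree Celsius. Luciferase luminescence was read after lysis.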
# A549 viability: counter-screen for Nrf2 inhibitors: cytotoxicity in A549 cells; Potency, µM (highest dose often 46 µM), inactives show at the top dose activity change, negative = cytotoxicity, actives largely listed as inhibitors; 390,000 compounds, 0.16% hits; A549 ARE-Fluc cells, CellTiter-Fluor viability, 18-24 h; note: potency is the fitted concentration of half-maximal effect; % is set by controls: 0 for no effect and ±100 for the full control effect
#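 A549 ARE-Fluc cells in 5% FBS OPTI-MEM, 5000 cells/well, rested 2 h then exposed to compounds in concentration-response for 18-24 h at 37 °C. Viability by CellTiter-Fluor fluorescence (Ex 405/Em 525) after 30 min; luciferase luminescence (BugLite, 15 min, RT) read afterwards.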
# ClpP mod: qHTS Assay for Activators of ClpP | purified B. subtilis ClpP, FRET peptide cleavage, 20 min | 340,000 compounds, 1.9% hits | Potency, µM (series often up to 57.5 µM), for inactives: at the highest dose activity change, negative = active | ATP-dependent Clp protease proteolytic subunit (Bacillus subtilis (strain 168)), P80244 | AID 651965, 2013; active = well fitted falling curve with a large enough effect; inconclusive = small, poorly fitted or top-dose-only effect; inactive = no such curve, though single readings can be large or run the other way; note: potency is the fitted concentration of half-maximal effect; the source files actives as falling curves though it sought activators and does not explain the sign; nearly all actives have a fitted effect of over 65% in size
#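 FRET quenching reversal measured ClpP activation: 10 microg/mL B. subtilis ClpP at pH 8 with the FRET-FV decapeptide, read at 430 nm after 320 nm excitation. The 20-min minus 0-min signal was scaled between DMSO/no-enzyme wells and ADEP (5.8 microM final).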
# p53 reactivator: mutant p53 re-activation in reporter cells; H1299 p53-A138V BP100-luciferase reporter, luminescence, 24 h; Potency, µM (series often up to 92.2 µM), inactives show at the highest dose activity change, positive = activation, hits mostly activators; 320,000 compounds, 0.063% hits; AID 504706; note: potency is the fitted concentration of half-maximal effect; % of control where 0% means no effect; nearly all actives have a fitted effect of over 45% in size
#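 H1299 (p53-null), stable ts p53-A138V + BP100-Luc; 1000 cells/well, Opti-MEM/10% FBS; cpd 4 pt, 1:5; 24 h, 37 deg C, 5% CO2; detection reagent 10 min RT; luminescence.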
# Nrf2 ARE act: Nrf2 pathway activation | AREc32 ARE-luciferase reporter (MCF7-derived line), luminescence, 24 h | Potency, µM (doses to about 46.1 µM), for inactives: top-dose activation, actives largely listed as activators | 410,000 compounds, 0.31% hits | AID 624171; note: potency is the fitted concentration of half-maximal effect; % of control where 0% means no effect; nearly all actives have a fitted effect of over 65% in size
#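 Reporter line AREc32 (ARE-Fluc), seeded overnight in OPTI-MEM with 5% FBS; compound pin-transferred, 24 hr at 37 deg C, 5% CO2; luminescent read-out.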
# Nrf2 block: Nrf2 pathway inhibition; 360,000 compounds, 2.1% hits; Potency, µM (top dose mostly 46 µM), for inactives: at the highest dose activity change, negative = inhibition, most hits filed as inhibitors; AID 504444; A549 ARE-Fluc reporter, luciferase luminescence, 18-24 h; note: potency is the fitted concentration of half-maximal effect; % is set by controls: 0 for no effect and ±100 for the full control effect; nearly all actives have a fitted effect of over 60% in size
#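 A549 ARE_Fluc cells, 5000/well, 5% FBS OPTI-MEM; compounds in dose-response, 18-24 h at 37 °C/5% CO2; CellTiter-Fluor viability read (Ex 405/Em 525), then BugLite luciferase luminescence = Nrf2 activity.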
# An asterisk follows results filed as active; ? = inconclusive; / = not tested or not shown. Unless noted, calls come from the whole dose curve; as a rule, active = well fitted curve in the direction sought with a large enough effect; inconclusive = small, poorly fitted or top-dose-only effect, or another doubt; inactive = no such curve, though single readings can be large; an effect the other way counts as inactive or inconclusive.
(1) N#CC1(C#N)C(c2ccccc2)OC23CCCCCC2C1(C#N)C(=N)O3 (stereo not given)
(2) CCCCCCCCOc1ccc(C2OC34CCCCC3C(C#N)(C#N)C2(C#N)C(=N)O4)cc1 (stereo not given)
(3) CCCCC1OC23CCCCC2C(C#N)(C(=N)O3)C1(C#N)C#N (stereo not given)
(4) N#CC1(C#N)C(c2ccccc2)OC23CCCCC2C1(C#N)C(=N)O3 (stereo not given)
(5) CCN1CCN(C(=O)c2cnn(-c3ccc(F)cc3F)c2C2CCN(C(=O)OC(C)(C)C)CC2)CC1
(6) CCC1C(=O)CC2CCN3C(=O)CCC1C23 (stereo not given)

assay / compound	1	2	3	4	5	6
Nrf2 block	3%	22%	-19%	-7%	?	4%
A549 viability	-1%	-2%	3%	-10%	5%	0%
miR-21 reporter	-1%	-4%	-3%	-6%	0%	/
ClpP mod	32µM*	20µM*	?	14µM*	-1%	/
Nrf2 ARE act	2%	3%	12%	0%	0%	/
p53 reactivator	-4%	11%	20%	-3%	/	/

# Arranged by value in miR-21 reporter (descending): five of the compounds above.
item	structure	miR-21 reporter
5	CCN1CCN(C(=O)c2cnn(-c3ccc(F)cc3F)c2C2CCN(C(=O)OC(C)(C)C)CC2)CC1	0%
1	N#CC1(C#N)C(c2ccccc2)OC23CCCCCC2C1(C#N)C(=N)O3 (stereo not given)	-1%
3	CCCCC1OC23CCCCC2C(C#N)(C(=N)O3)C1(C#N)C#N (stereo not given)	-3%
2	CCCCCCCCOc1ccc(C2OC34CCCCC3C(C#N)(C#N)C2(C#N)C(=N)O4)cc1 (stereo not given)	-4%
4	N#CC1(C#N)C(c2ccccc2)OC23CCCCC2C1(C#N)C(=N)O3 (stereo not given)	-6%

# Remaining list, next part
(7) Fc1ccc(F)c(C2=NNC(=Nc3ccccc3F)SC2)c1
(8) Fc1ccccc1N=C1NN=C(c2ccccc2)CS1
(9) Cn1c2cc(Br)sc2c2cnn(Cc3ccccc3F)c(=O)c21
(10) Oc1ccc(/C=N\Nc2nncc(-c3ccccc3)n2)cc1
(11) COc1ccc(-c2cnnc(N/N=C/c3ccc(O)cc3)n2)cc1
(12) c1ccc2oc(-c3ccc4nc[nH]c4c3)nc2c1

assay / compound	7	8	9	10	11	12
Nrf2 block	-14%	?	3%	?	19%	/
A549 viability	?	?	-3%	-14%	-9%	-1%
miR-21 reporter	16%	17%	/	-2%	-31%	-49%
ClpP mod	-5%	10µM*	/	-2%	/	25µM*
Nrf2 ARE act	15%	12%	/	7.1µM*	28%	?
p53 reactivator	?	6%	/	11%	12%	?

(13) COc1ccc(CN(C(=O)Cc2coc3ccc(C)cc23)C2CCS(=O)(=O)C2)cc1 (stereo not given)
(14) COc1ccccc1-c1noc(-c2ccc(N3CCC(C)CC3)c([N+](=O)[O-])c2)n1
(15) O=C(Nc1ccc2nn(-c3ccccc3)nc2c1)c1ccc2c(c1)OCCO2
(16) O=C(Nc1ccc(NC(=O)c2ccc3c(c2)OCCO3)cc1)c1ccccc1
(17) O=C(Nc1ccc2nsnc2c1)c1ccc2c(c1)OCO2
(18) Cc1ccc(-n2nc3ccc(NC(=O)c4ccc5c(c4)OCO5)cc3n2)cc1

assay / compound	13	14	15	16	17	18
Nrf2 block	-18%	?	/	-15%	?	-19%
A549 viability	-2%	-4%	-22%	2%	-21%	-7%
miR-21 reporter	-4%	-7%	8%	-14%	-25%	-5%
ClpP mod	-1%	-1%	8.9µM*	/	?	14µM*
Nrf2 ARE act	1%	0%	0%	5%	0%	4%
p53 reactivator	/	/	-4%	13%	/	9%

(19) CCc1cccc(NC(=O)COc2cc(=O)n(CC)c3ccccc23)c1
(20) COc1ccc(CCn2c3c(c(=O)[nH]c2=O)C(NC(=O)c2ccccc2F)(C(F)(F)F)C(=O)N3)cc1OC (stereo not given)
(21) Cc1cccc(C(=O)N(CCc2ccccc2)Cc2ccccc2)c1[N+](=O)[O-]
(22) Cc1noc(C)c1C(=O)NCc1ccccc1
(23) Cc1noc(C)c1C(=O)NCCc1ccccc1
(24) O=C(NCc1ccccc1)c1c(Cl)nc(Cl)c(Cl)c1Cl

assay / compound	19	20	21	22	23	24
Nrf2 block	16%	9%	21µM*	/	16%	-21%
A549 viability	-9%	-1%	?	2%	-6%	1%
miR-21 reporter	1%	0%	6%	-3%	-12%	23%
ClpP mod	-6%	-1%	0%	32µM*	-1%	/
Nrf2 ARE act	0%	0%	0%	0%	-1%	10µM*
p53 reactivator	/	/	-2%	3%	4%	-15%

(25) Cc1nc(Cl)c(C(=O)NCc2ccccc2)c(C)c1Cl
(26) O=C(Cn1c(=O)oc2cc(S(=O)(=O)N3CCCCCC3)ccc21)Nc1ccc(F)cc1F
(27) CN(C(=O)c1ccno1)c1nnc(-c2ccccn2)s1
(28) COc1ccc(-c2nnc(N(C)C(=O)c3ccno3)s2)cc1
(29) CCOc1ccccc1C(=O)Nc1cc2c(cc1N1CCCCC1)n(C)c(=O)n2C
(30) Cn1c(=O)n(C)c2cc(N3CCCCC3)c(NC(=O)c3ccccc3)cc21

assay / compound	25	26	27	28	29	30
Nrf2 block	?	-4%	16%	?	23µM*	4%
A549 viability	8%	2%	5%	1%	?	-2%
miR-21 reporter	-5%	-32%	-11%	-55%	?	0%
ClpP mod	-2%	-1%	-23%	22µM*	?	-2%
Nrf2 ARE act	2%	16%	2%	0%	4%	0%
p53 reactivator	-1%	/	14%	?	/	-15%

# Another view of some results above:
# Each structure is followed by: Nrf2 block | A549 viability | miR-21 reporter | ClpP mod | Nrf2 ARE act | p53 reactivator
(29) CCOc1ccccc1C(=O)Nc1cc2c(cc1N1CCCCC1)n(C)c(=O)n2C
 : 23µM* | ? | ? | ? | 4% | /
(30) Cn1c(=O)n(C)c2cc(N3CCCCC3)c(NC(=O)c3ccccc3)cc21
 : 4% | -2% | 0% | -2% | 0% | -15%

# (listing goes on)
(31) CC(C)(C)OC(=O)COc1cc(OCC(=O)OC(C)(C)C)c2c(=O)cc(-c3ccccc3)oc2c1
(32) COc1cccc2cc(NC(=O)C3CCCCC3)c(=O)oc12
(33) CC(C)n1c(=O)c2ccccc2n1CC(=O)N1CCOCC1
(34) CCOc1ccccc1NC(=O)NNC(=O)c1ccc2ccccc2c1
(35) Cc1ccc(-c2onc(C)c2C)cc1S(=O)(=O)N1CCN(c2ccccc2F)CC1
(36) N/C(=N\OC(=O)c1cccc(Cl)c1)c1ccncc1

assay / compound	31	32	33	34	35	36
Nrf2 block	23µM*	?	/	-25%	?	12%
A549 viability	16µM*	-7%	/	-10%	-17%	5%
miR-21 reporter	?	-34%	/	8%	0%	-51%
ClpP mod	?	35µM*	5%	32µM*	-1%	-1%
Nrf2 ARE act	-2%	1%	0%	0%	-1%	11µM*
p53 reactivator	-7%	15%	/	-30%	/	15%

(37) N/C(=N\OC(=O)c1ccc2ccccc2c1)c1ccccc1Cl
(38) N/C(=N\OC(=O)c1ccccc1Cl)c1ccncc1
(39) COc1ccc(C2Nc3ccccc3C(=O)N2CCO)cc1COc1ccc(NC(C)=O)cc1 (stereo not given)
(40) CN(C)c1cccc(S(=O)(=O)N2CCN(S(=O)(=O)c3ccc4c(c3)OCCO4)CC2)c1
(41) O=c1c(-c2nnc(SCc3ccc(Cl)cc3Cl)o2)cccn1Cc1ccccc1
(42) CSc1nnc(-c2cccn(Cc3ccccc3)c2=O)o1

assay / compound	37	38	39	40	41	42
Nrf2 block	?	?	-11%	4%	?	-3%
A549 viability	-12%	-1%	-9%	-3%	?	0%
miR-21 reporter	?	19%	/	/	2%	-9%
ClpP mod	-4%	3%	/	/	3.2µM*	/
Nrf2 ARE act	19%	8.9µM*	/	/	0%	3%
p53 reactivator	20µM*	-2%	/	/	0%	0%

(43) CCN(CC)C(=O)CSC(Nc1ccc(F)cc1)=C(C#N)C#N
(44) Cc1ccc(CSC(Nc2ccc(F)cc2)=C(C#N)C#N)cc1
(45) c1nc(SSc2ncc3n[nH]nc3n2)nc2n[nH]nc12
(46) C/C(CC(=O)Nc1cccc2c1CCCC2)=N\NC(=O)c1ccccc1N

assay / compound	43	44	45	46
Nrf2 block	4%	21µM*	/	3%
A549 viability	-18%	?	/	-3%
miR-21 reporter	-4%	?	/	-42%
ClpP mod	/	-1%	-1%	28µM*
Nrf2 ARE act	6%	26%	/	3%
p53 reactivator	4%	-3%	/	9%
